According to patent publication US20180297966A1, “COMPOUNDS, COMPOSITIONS, AND METHODS OF MAKING AND USING THE SAME” (INNOVATIVE ANESTHETICS, LLC, priority 2015, published 2018):

Experiment: pH of exemplary salts with respect to concentration (% w/v)
Assay type: physicochemical

## Cc1cccc(C)c1NC(=O)C1CCCCN1C.O=C1NS(=O)(=O)c2ccccc21 (stereo not shown) [Mepivacaine saccharinate, Mepivacaine Saccharinate]
  pH: 3.95
